Test results: the NIST ThermoML archive (doi:10.1016/j.tca.2005.01.064)
Numbers after ± are expanded uncertainties.

Columns and labels:
[1] = 308.15 K; 101.33 kPa; Liquid; Vibrating tube method
[2] = excess molar enthalpy (molar enthalpy of mixing); xn = mol fraction of the nth substance listed; conditions: 308.15 K, 101.33 kPa, Liquid, Flow calorimetry

mass density [1]	excess molar enthalpy ([2]; x1 = 0.0243)	excess molar enthalpy ([2]; x1 = 0.0475)	excess molar enthalpy ([2]; x1 = 0.0697)	excess molar enthalpy ([2]; x1 = 0.0908)	excess molar enthalpy ([2]; x1 = 0.1303)	excess molar enthalpy ([2]; x1 = 0.1664)	excess molar enthalpy ([2]; x1 = 0.2305)	excess molar enthalpy ([2]; x1 = 0.2853)	excess molar enthalpy ([2]; x1 = 0.3746)	excess molar enthalpy ([2]; x1 = 0.4734)	excess molar enthalpy ([2]; x1 = 0.5451)	excess molar enthalpy ([2]; x1 = 0.6425)	excess molar enthalpy ([2]; x1 = 0.7056)	excess molar enthalpy ([2]; x1 = 0.7824)	excess molar enthalpy ([2]; x1 = 0.8276)	excess molar enthalpy ([2]; x1 = 0.8779)	excess molar enthalpy ([2]; x1 = 0.935)	SMILES
1112.28 ± 0.17 kg/m3	–	–	–	–	–	–	–	–	–	–	–	–	–	–	–	–	–	OCCOCCOCCOCCO [tetraethylene glycol]
–	0.0303 ± 0.00055 kcal/mol	0.0549 ± 0.000789 kcal/mol	0.0755 ± 0.001 kcal/mol	0.091 ± 0.00115 kcal/mol	0.114 ± 0.00139 kcal/mol	0.13 ± 0.00153 kcal/mol	0.152 ± 0.00177 kcal/mol	0.162 ± 0.00186 kcal/mol	0.176 ± 0.00201 kcal/mol	0.182 ± 0.00206 kcal/mol	0.179 ± 0.00203 kcal/mol	0.165 ± 0.00189 kcal/mol	0.149 ± 0.00172 kcal/mol	0.12 ± 0.00143 kcal/mol	0.0994 ± 0.00124 kcal/mol	0.07 ± 0.000932 kcal/mol	0.0366 ± 0.000598 kcal/mol	OCCOCCOCCOCCO [tetraethylene glycol] + CCO
